Source: BindingDB's records for doi:10.1016/s0960-894x(02)00131-2 (Shire Biochem, 2002)

Molecular target: Prothrombin/thrombin (Homo sapiens) (UniProt P00734)
Experiment: Inhibition of amidolytic activity of thrombin

- Ki: 80 nM
Compound: N=C(N)N1CCC(CNC(=O)[C@@H]2CC[C@H]3CN(C(=O)CC(c4ccccc4)c4ccccc4)CC(=O)N32)CC1 [(6S,8aS)-2-(3,3-Diphenyl-propionyl)-4-oxo-octahydro-pyrrolo[1,2-a]pyrazine-6-carboxylic acid (1-carbamimidoyl-piperidin-4-ylmethyl)-amide]
